{"sequences": {"note": "Amino acid sequences for entries named in this document (tags omitted).", "UniProt Q8VCK6, whole entry R65K": "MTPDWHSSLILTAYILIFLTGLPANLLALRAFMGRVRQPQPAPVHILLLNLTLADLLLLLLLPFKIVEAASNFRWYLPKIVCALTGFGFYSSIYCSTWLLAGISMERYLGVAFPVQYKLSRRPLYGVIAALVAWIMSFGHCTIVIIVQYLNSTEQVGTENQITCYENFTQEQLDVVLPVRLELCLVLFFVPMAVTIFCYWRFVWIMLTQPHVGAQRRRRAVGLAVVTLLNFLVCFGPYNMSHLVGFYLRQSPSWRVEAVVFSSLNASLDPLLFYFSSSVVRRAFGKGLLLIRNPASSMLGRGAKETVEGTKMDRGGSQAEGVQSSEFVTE"}, "source": "paper PMC5653858", "about": "“A single extracellular amino acid in Free Fatty Acid Receptor 2 defines antagonist species selectivity and G protein selection bias” (Scientific Reports, 2017)", "target": "Arg^65Lys mFFA2 (Mus musculus, UniProt Q8VCK6, R65K)", "assay": "[3H]GLPG0974 radioligand binding assay, Arg65Lys mFFA2", "details": "tested as the radiolabelled form"}
{"smiles": "C[C@]1(C(=O)N(CCCC(=O)O)Cc2cccc(Cl)c2)CCN1C(=O)c1csc2ccccc12", "values": [{"measurement": "Kd", "setting": "read-out: Kd at Arg65Lys mFFA2, saturation binding, membranes", "value": 51, "unit": "nM"}, {"measurement": "affinity at Arg65Lys mFFA2 lower than for wild type hFFA2", "value": 7, "unit": "fold"}]}
